{
  "source": "paper PMC4436800",
  "about": "“Identification, functional characterization, and pharmacological profile of a serotonin type-2b receptor in the medically important insect, Rhodnius prolixus” (Frontiers in Neuroscience, 2015)",
  "target": "T1, Rhopr5HTR2b (R. prolixus serotonin type 2b receptor) (Rhodnius prolixus, UniProt A0A0H4TRR1)",
  "T1 construct": "gene 5HT-R2; complete open reading frame (Genbank KP325472) in pcDNA3.1, transiently expressed in CHOK1-aeq cells",
  "T1 sequence (A0A0H4TRR1 1-703)": "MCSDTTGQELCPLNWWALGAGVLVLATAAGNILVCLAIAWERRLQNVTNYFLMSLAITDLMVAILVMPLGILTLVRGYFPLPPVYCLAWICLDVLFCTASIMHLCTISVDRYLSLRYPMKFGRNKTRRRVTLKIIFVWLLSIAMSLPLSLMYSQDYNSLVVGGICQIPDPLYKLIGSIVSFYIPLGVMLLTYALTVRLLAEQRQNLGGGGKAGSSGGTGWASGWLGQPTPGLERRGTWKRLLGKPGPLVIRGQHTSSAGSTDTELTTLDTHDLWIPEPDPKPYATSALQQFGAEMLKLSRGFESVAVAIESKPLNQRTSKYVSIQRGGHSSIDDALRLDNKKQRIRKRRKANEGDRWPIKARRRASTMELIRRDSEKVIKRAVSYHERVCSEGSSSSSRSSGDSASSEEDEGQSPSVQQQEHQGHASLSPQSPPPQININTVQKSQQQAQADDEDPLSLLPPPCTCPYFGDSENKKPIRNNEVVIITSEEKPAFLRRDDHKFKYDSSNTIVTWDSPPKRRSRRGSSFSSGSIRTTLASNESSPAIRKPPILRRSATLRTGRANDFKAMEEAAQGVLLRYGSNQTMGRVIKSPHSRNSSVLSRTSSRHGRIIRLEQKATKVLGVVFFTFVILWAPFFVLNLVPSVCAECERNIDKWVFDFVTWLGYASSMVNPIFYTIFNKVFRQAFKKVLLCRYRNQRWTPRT",
  "assay": "aequorin calcium luminescence assay, agonist dose-response in transfected CHOK1-aeq cells",
  "type": "cell-based",
  "data": [
    {"smiles": "NCCc1c[nH]c2ccc(O)cc12", "note": "[serotonin]", "values": [
      {"measurement": "EC50", "value": 201, "unit": "nM"}
    ]}
  ]
}
